Biological target: recombinant gamma-aminobutyric acid receptor-associated protein (rGABARAP) (Frankliniella occidentalis, UniProt A0A6J1T1Q2)
Experiment: Microscale thermophoresis (MST) binding to rGABARAP
Conditions: read-out: Kd value, MST

Protein sequences, listed by entry. Tags and fused reporters are not part of them. Residues count along the entry.
UniProt A0A6J1T1Q2, 1-118: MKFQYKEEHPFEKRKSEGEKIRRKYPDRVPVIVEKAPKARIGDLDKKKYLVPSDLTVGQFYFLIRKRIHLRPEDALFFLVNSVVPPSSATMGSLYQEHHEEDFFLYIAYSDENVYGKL

CC(C)=C1CCC(C)CC1=O (racemic)
Kd: 2060 nM

Source: patent US20240099298A1, “BIOINSECTICIDAL COMPOSITIONS CONTAINING MONOTERPENES AND METHODS OF USE THEREOF” (priority 2017, published 2024)
